This is an account of results in PMC5768801, “The PII signaling protein from red algae represents an evolutionary link between cyanobacterial and Chloroplastida PII proteins” (Scientific Reports, 2018).

The chains behind the UniProt entries cited, without tags or fusion partners. Where a name states a change or a piece, a line headed by the entry shows the natural chain unless it says otherwise.
UniProt P51254: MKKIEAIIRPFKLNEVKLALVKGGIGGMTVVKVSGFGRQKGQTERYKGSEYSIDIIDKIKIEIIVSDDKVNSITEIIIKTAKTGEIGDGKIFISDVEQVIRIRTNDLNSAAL

Experiment [1] has as its target PpPII-ScNAGK complex (Porphyra purpurea, UniProt P51254). The experiment in a line: Coupled NAGK activity assay, ScNAGK with PpPII. In kind it is biochemical, Synechocystis sp. PCC 6803; Porphyra purpurea.
Experiment [2] concerns the target PpPII (Porphyra purpurea, UniProt P51254). As to the kind of experiment: ITC binding of small effector molecules to red algal PpPII. As for the experimental part:
To gain additional insights into the ligand binding properties of PpPII in comparison to cyanobacterial and chloroplastid PII proteins, isothermal titration calorimetry (ITC) experiments were performed using highly purified Strep-tagged or His-tagged recombinant PpPII, SyPII, CrPII, and PhyscoPII proteins (Supplementary Fig. S1) with different protein/ligand/ concentrations to determine the best fitting conditions of the binding model. The titration experiments were repeated with different protein preparations to confirm the reproducibility of the results. The raw isothermal data were fitted into one-binding site as well as three-sequential binding sites to define the best fitting model. Fitting using a one binding site model states an average Kd value for all available binding sites and the mean of the stoichiometry of bound ligands.
The ITC experiments were done using a VP-ITC microcalorimeter (MicroCal, LCC). All details for determination of binding constants for small effector molecules using ITC are fully described in the supplementary information. Heat isotherms of the dilution of the ligand in the cell buffer were collected in a blank run for each experiment in the absence of protein. The binding isotherms were calculated from received data and fitted to one-site and three-sequential binding sites models using the MicroCal ORIGIN software (Northampton) as described. All titrations were performed in duplicates with different purification batches of recombinant PII proteins. The association binding constant (Ka) was generated from the software by de-convolution and curve fitting. For calculation of dissociation constant (Kd), the Ka value was inversed.
Supplementary Information […]
Determination of Binding Constants for Small Effector Molecules using Isothermal […]
The binding of the small effector molecules to the recombinant PII proteins was tested using isothermal titration calarmity (ITC); VP-ITC microcalorimeter (MicroCal). All titrations were performed on 20°C using […] injection syringe with injection 6 µl or 10 µl of the tested ligands for 45 or 29 times, respectively into the cell (1.4 ml) with continuous stirring at 155 rpm. All tested ligands were high grade, prepared freshly in the same buffer of the protein and purchased from Sigma-Aldrich. Heat isotherms for the dilution of the ligand in the cell buffer were collected in a blank run in the absence of protein. The received calorimetric data were analyzed using MicroCal Origin software and fitted into one-site and three-sequential binding sites models, as indicated by the manufacture for calculation of binding isotherms9. For data reproducibility, the titrations were performed in duplicates with different purification batches of recombinant PII proteins. The association binding constant (Ka) was generated from the software by de-convolution and curve fitting. For calculation of dissociation constant (Kd), the Ka value was inversed.
For determination the binding isotherms of red algal PpPII protein, a buffer system composed of […]
used. For determination ATP and ADP binding isotherms upon the binding to PpPII protein, His- […]
against 2 mM ATP or 2 mM ADP. For determination of ATP and ADP binding isotherms in […]
concentration) was titrated against 0.5 mM of ATP or 1 mM ADP, respectively. However, for […]
of 1 mM of ATP or 1 mM ADP. […]

Read-outs that look alike come from different tables or passages of the source.

For orientation: IC50 means the concentration at which inhibition is half-maximal. A higher IC50 goes with weaker potency in that assay. In experiment [1], `O=C(O)CCC(=O)C(=O)O` [2-OG, 2-oxoglutarate] yielded a 50% inhibitory concentration (IC50) of 220 ± 10 µM. Moreover, the Kd in experiment [2] (Average Kd (one-site binding model), in presence ATP (1 mM)) was determined as 4 ± 2.4 µM; in experiment [2] (Kd1 (three-sites binding model), in presence ATP (1 mM)), 2.7 ± 1.4 µM; in experiment [2] (Kd3 (three-sites binding model), in presence ATP (1 mM)), 80 ± 22 µM; in experiment [2] (read-out: Kd2 (three-sites binding model), in presence ATP (1 mM)) it was 50.7 ± 16.1 µM. For the same compound, the “Average Kd (one-site binding model)” value in experiment [2] (in presence ADP (1 mM)) is reported as “No binding”. Moreover, the “Kd1 (three-sites binding model)” value in experiment [2] (in presence ADP (1 mM)) was “No binding”. Moreover, the “Kd2 (three-sites binding model)” value in experiment [2] (in presence ADP (1 mM)) was “No binding”. Moreover, the “Kd3 (three-sites binding model)” value in experiment [2] (in presence ADP (1 mM)) was “No binding”.
